Laboratory results published in patent US20070066616A1, “Inhibitors for extracellular signal-regulated kinase docking domains and uses therefor” (priority 2005, published 2007).

The chains behind the UniProt entries cited, without tags or fusion partners.
UniProt P63085, whole entry: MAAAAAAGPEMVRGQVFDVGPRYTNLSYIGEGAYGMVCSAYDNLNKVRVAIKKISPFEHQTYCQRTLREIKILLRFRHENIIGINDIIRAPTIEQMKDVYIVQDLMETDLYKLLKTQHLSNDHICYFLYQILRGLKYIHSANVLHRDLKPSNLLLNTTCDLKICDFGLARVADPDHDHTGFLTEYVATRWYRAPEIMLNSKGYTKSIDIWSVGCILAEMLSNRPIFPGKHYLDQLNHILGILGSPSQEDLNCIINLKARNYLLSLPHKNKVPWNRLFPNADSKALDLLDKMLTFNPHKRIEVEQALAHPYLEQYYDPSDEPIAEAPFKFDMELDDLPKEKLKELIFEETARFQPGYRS

Columns and labels:
[1] = tested on: HeLa, A549, or SUM-159 cells; assay: Colony formation assay, screen of test compounds (FIG. 7A); design: dose or concentration left out as unconfirmed; conditions: FIG. 7A screen as printed
[2] = target: ERK2 (Mus musculus, UniProt P63085); assay: Fluorescence titration (quenching of intrinsic ERK2 fluorescence); assay type: binding

## O=C(CSc1nc2ccccc2o1)Nc1ccc(-n2cnnn2)cc1
[1]
  effect on colony formation / cell proliferation (in words): inhibited colony formation
[2]
  ERK2 fluorescence quenching / binding (in words): bind to directly ERK2
